Data on one molecule can be found in US10034922B2, “Peptide having angiogenesis inhibitory activity and composition containing same” (GemVax & KAEL Co., Ltd., priority 2013, dated 2018).

SMILES strings stand for the structures.

Experiment [1] concerns HSP70. Kind of experiment: HSP70 protein level by flow cytometry. It counts as cell-based, human. Particulars: MCF7 cells. As to the method: (§1) MCF7 cells were treated by the PEP1 or the control group. For the proteasome inhibition test, during the incubation, the cells were treated by the 5 μM proteasome inhibitor MG132 (Calboicam). By using the trypsin, the cells were separated and rinsed by the cold PBS (phosphate buffered saline) and the FACS buffer (PBS containing 1% BSA and 0.1% NaN3). For the intracellular staining, the cells were treated by the permeabilization buffer (eBioscience, CA, USA) following the instruction of the manufacturer. The cells were reacted with α-HSP70-FITC (ab61907, Abcam) or α-HSP90-PE (ab65171, Abcam) at the 4° C. for 30 minutes. By using FACScan flow cytometer (Becton Dickinson Co., CA, USA), the flow cytometry analysis was done. The data were analyzed by using Flowjo™ software (version 10.0.5, Tree Star, Inc., OR, USA).
In general terms: Flow cytometry measures light scatter and fluorescence of single cells or particles in a stream.

Experiment [2] has as its system HSP90. Kind of experiment: HSP90 protein level by flow cytometry. It counts as cell-based, human. Particulars: MCF7 cells. The procedure:
as §1

For experiment [3], the system named is HSP70. Briefly: HSP70 in tumor lysates (immunoblotting). The note with it: all three PEP1 treated tumor samples. Type of experiment: in vivo, mouse. The procedure:
(§2) 7 week-old BALB/c athymic mice (Nu/Nu) (10 mice per group; n=20, female, Orient Bio Co. Gyunggido, Korea) were divided into two groups randomly after the subcutaneous injection of murine colon carcinoma MC38 (5×10^5 cells/ml in 200 μl PBS per site). PEP1 (50 μg/kg in 100 μl 0.9% NaCl solution) or PBS were injected into the mice once per 2 days. When the size of tumor reaches 10 mm, the PEP1 and PBS were injected to the inside of tumor. The size of tumor was measured in once per 2 days, and the volume of tumor was calculated following equation; volume (mm3)=((width2×length)/2). All experiments were approved by the Institute for Experimental Animals (College of Medicine, Seoul National University at Seoul, Korea).
(§3) Similar to the PCNA staining method, by using immunohistochemical staining, HSP70 and HSP90 proteins expression in tumor were evaluated. The antibodies to the heat shock proteins (HSP70; sc-7298, HSP90; ab1429) was used as the first antibodies. HSP70 and HSP90 proteins expression by tumors was evaluated by immunoblotting using tumor lysate. After freezing by liquid oxygen, the tumor was crashed by the mortar, and homogenized by extraction buffer (20 mM HEPES, pH7.5, 100 mM NaCl, 0.05% Triton X-100, 1 mM DTT, 0.5 mM sodium orthovanadate, 1 mM EDTA, 0.5 mM PMSF, 10 μg/ml aprotinin, 5 μg/ml leupeptin, 2 μg/ml pepstatin). […]
A general note: In western blotting, separated proteins are transferred to a membrane and probed.

Experiment [4] deals with GRP78. Kind of experiment: GRP78 in tumor lysates (immunoblotting). It counts as in vivo, mouse. Particulars: PEP1 treated sample. The procedure: as §2, §3
Experiment [5] concerns MC38 tumor. Kind of experiment: Histological test of tumor (H&E staining). Particulars: PEP1 treated mouse. Type of experiment: in vivo. The procedure:
FIGS. 22 to 24 represent the results of histological test of the PEP1 administered mouse tumor. The tumor cells collected from the mouse model having tumor treated by PEP1 or vehicle were prepared for immunohistochemistry. In the experiment of FIG. 22, the paraffin fixed sections were stained by H&E staining, and observed by a microscope. In the experiment of FIG. 23, the apoptosis was analyzed by TUNEL assay with the sections. The experiment of the FIG. 24, the proliferating cells were analyzed by immunohistochemistry with PCNA (proliferating cell nuclear antigen) antibodies. The 10 fields were selected randomly from 6 slides of each treatment group, for the quantification, were analyzed by Leica Qwin software.
For evaluating the apoptosis of tumor, by using formalin-fixed and Paraffin-embedded tumor sections, the DNA fragmentation was analyzed by Tunnel assay. According to the manufacturer's instruction, the tumor section was stained by the apoptosis detection kit (ApopTag Peroxidase In Situ, Millipore). The proliferating cells in tumor were detected by using PCNA (Proliferating cell nuclear antigen). […] And then, the field was randomly selected from the 6 slides of each treatment groups, and the field was analyzed by Leica Qwin software for quantification.

In experiment [6] the test system is MC38 tumor. Kind of experiment: Apoptosis in tumor sections (TUNEL assay). Particulars: TUNEL staining, PEP1 treated tumor sample. It counts as in vivo, mouse. The procedure:
For evaluating the apoptosis of tumor, by using formalin-fixed and Paraffin-embedded tumor sections, the DNA fragmentation was analyzed by Tunnel assay. According to the manufacturer's instruction, the tumor section was stained by the apoptosis detection kit (ApopTag Peroxidase In Situ, Millipore). The proliferating cells in tumor were detected by using PCNA (Proliferating cell nuclear antigen). For searching the antigen, the tissue sections were deparaffinized in 10 μM citrate (pH6.0) buffer during 40 minutes, hydrated, and heated. The tissues were stained by anti-mouse PCNA monoclonal antibody (ab29, Abcam). After the second treatment and development of antibody, the tissue sections were contrast stained by H&E staining method. And then, the field was randomly selected from the 6 slides of each treatment groups, and the field was analyzed by Leica Qwin software for quantification.

In experiment [7] the test system is Human umbilical vein endothelial cell induced by VEGF-A. Kind of experiment: Endothelial tube formation by VEGF-A. Type of experiment: cell-based. Particulars: PEP1 0.05, 0.5, 5 μM, VEGF-A 10 ng/mL, 6 hours. As to the method:
On the 24-well plate coated by 200 μl of Matrigrl® basement membrane matrix (10.4 mg/mL, BD Biosciences) for 30 minutes at 37° C., the vascular endothelial cells (4×10^4 cells/well) were plated and serum-starved in the basic EBM-2 media for 2 hours. After treating with PEP1 at each concentration (0.05, 0.5, 5 μM) and the cells was stimulated by VEGF-A (10 ng/mL) for 6 hours. The change of the tube formation was observed by Olympus CKX41 inverted microscope (CAchN 10/0.25 php objective, Olympus Optical Co., Tokyo, Japan) and ToupTek Toupview software (version x86, 3.5.563, Hangzhou ToupTek Photonics Co., Zhejiang, P. R. China) (FIG. 4a).

Regarding `CC[C@H](C)[C@H](NC(=O)[C@H](Cc1ccccc1)NC(=O)[C@H](CCCNC(=N)N)NC(=O)[C@H](CC(C)C)NC(=O)[C@H](CCCNC(=N)N)NC(=O)[C@H](CO)NC(=O)[C@@H](NC(=O)[C@H](CC(C)C)NC(=O)[C@H](CC(C)C)NC(=O)[C@H](C)NC(=O)[C@@H]1CCCN1C(=O)[C@H](CCCNC(=N)N)NC(=O)[C@H](C)NC(=O)[C@@H](N)CCC(=O)O)[C@@H](C)O)C(=O)N1CCC[C@H]1C(=O)N[C@@H](CCCCN)C(=O)O` [PEP1, EARPALLTSRLRFIPK], the “effect of PEP1 on HSP70 with proteasome inhibitor” value in experiment [1] (PEP1 with MG132 5 μM) is “disappeared”. Moreover, the “cell surface HSP70, compared with intracellular HSP” value in experiment [1] (cell surface staining) was “less affected”. In experiment [1] (intracellular staining), the “intracellular HSP70” value is “decreases”. Besides, in experiment [2] (PEP1 with MG132 5 μM), the “effect of PEP1 on HSP90 with proteasome inhibitor” value is “disappeared”. In experiment [2] (cell surface staining), the “cell surface HSP90, compared with intracellular HSP” value is reported as “less affected”. In addition, in experiment [2] (intracellular staining), the “intracellular HSP90” value is “decreases”. Also, the “HSP70 protein level in tumor” value in experiment [3] was “decreases”. Moreover, the “GRP78 protein level in tumor” value in experiment [4] was “decreased”. In addition, in experiment [5], the “cavities in tumor tissue section vs control group” value is “more cavities” and the “vascularization in the tumor” value was “less vascularization”. In addition, the “cell apoptosis in tumor vs control group” value in experiment [6] was “significant high level”. In experiment [7], the “endothelial tube formation by VEGF-A” value is reported as “in a concentration dependent way inhibits”.
